Results: ChEMBL document CHEMBL1122530, “Probes for narcotic receptor mediated phenomena. 7. Synthesis and pharmacological properties of irreversible ligands specific for mu or delta opiate receptors” (1984)

Sequences of proteins named here, by UniProt entry; tags and fusion partners are left off.
UniProt P33533, whole entry: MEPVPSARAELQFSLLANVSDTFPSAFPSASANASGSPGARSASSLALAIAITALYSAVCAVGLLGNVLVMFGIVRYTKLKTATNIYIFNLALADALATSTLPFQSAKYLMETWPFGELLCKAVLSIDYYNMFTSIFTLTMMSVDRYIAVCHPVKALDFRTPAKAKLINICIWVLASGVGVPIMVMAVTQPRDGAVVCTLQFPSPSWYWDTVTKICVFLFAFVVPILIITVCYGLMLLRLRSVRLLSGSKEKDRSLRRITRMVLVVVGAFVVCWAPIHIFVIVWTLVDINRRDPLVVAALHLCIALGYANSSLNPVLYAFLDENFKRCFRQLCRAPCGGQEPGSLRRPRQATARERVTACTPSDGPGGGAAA

Legend:
[1] = target: T1, Delta-type opioid receptor (Rattus norvegicus, UniProt P33533); assay: The binding affinity was evaluated against [3H]dalamid binding to rat brain membranes (Opioid receptor delta 1)
[2] = target: T1, Delta-type opioid receptor; assay: The binding affinity was evaluated against [3H]dalamid binding to neuroblastoma X glioma hybrid cell NG108-15 (Opioid receptor delta 1)membranes

| SMILES | EC50 [1] | EC50 [2] |
| --- | --- | --- |
| COC(=O)/C=C/C(=O)N[C@H]1C[C@@]23C=C[C@]1(OC)[C@@H]1Oc4c(O)ccc5c4C12CCN(C)[C@@H]3C5 | 50 nM | 50 nM |
| CO[C@]12C=C[C@@]3(C[C@@H]1NC(=O)CBr)[C@H]1Cc4ccc(O)c5c4C3(CCN1C)[C@H]2O5 | 70 nM | 50 nM |
| CO[C@]12C=C[C@@]3(C[C@@H]1N=C=S)[C@H]1Cc4ccc(O)c5c4C3(CCN1C)[C@H]2O5 | 50 nM | 20 nM |
